From patent US10167295B2 (priority 2013, dated 2019) come the findings set out here.

Assay [1] deals with T1, MOR (Homo sapiens, UniProt P35372). As to the kind of experiment: Primary binding (PDSP). The following applies: for MOR mean % inhibition: 10 μM, N = 4 determinations, negative = stimulation of binding; for MOR: Table 7, rounded values of Table 4.
In assay [2] the target is T1, MOR. The experiment in a line: Radioligand competition binding, Ki (PDSP). The following applies: read-out: MOR Ki.
In the next assay the test system is Sprague-Dawley rats. As to the kind of experiment: Randall-Selitto paw-withdrawal assay, mechanical nociceptive threshold. The conditions noted are these: for Nociceptive testing (analgesia / anti-analgesia): FIG. 17.
The mark [3] stands for this setting: Cheng-Prusoff from best fit IC50.

Like-named read-outs stand apart in the source and are kept apart here.

For the compound `CN(C(=O)Cc1ccccc1)[C@H](CN1CCCC1)c1ccccc1` [listing 1 of 2 here], on MOR [1], the “MOR mean % inhibition” value is listed as 69.2% and the MOR is listed as 69.

As to `CN(C(=O)Cc1ccc2occc2c1)[C@H](CN1CCCCC1)c1ccccc1`, the “MOR mean % inhibition” value at MOR [1] was 69.9%. This compound registered an MOR on MOR [1] of 70. Moreover, the Ki (in general, the equilibrium dissociation constant of an inhibitor or competing ligand from its target) worked out at 2040 nM on MOR [2] (setting [3]) and 2040 nM on MOR [2] (Table 7, values of Table 5).

With `CN(C(=O)Cc1ccc(Cl)c(Cl)c1)[C@H](CN1CCCCC1)c1ccccc1`, at MOR [1], the “MOR mean % inhibition” value stood at 92.9% and the MOR is reported as 93. In addition, on MOR [2] (setting [3]), the Ki was 156 nM. Besides, the Ki at MOR [2] (Table 7, values of Table 5) is 156 nM.

`Cc1cccc(CC(=O)N(C)[C@@H](CN2CCCCC2)c2ccccc2)c1`: on MOR [1], the “MOR mean % inhibition” value is recorded as 29.6% and the MOR turned out to be 30. Besides, the “Nociceptive testing (analgesia / anti-analgesia)” value in the assay on Sprague-Dawley rats is given as “significant analgesia without significant anti-analgesia”.

In the case of `O=C(Cc1ccc(Cl)c(Cl)c1)N1CCCC[C@H]1CN1CCCC1`, on MOR [1], the “MOR mean % inhibition” value was determined as 70% and the MOR is on record as 70. Moreover, on MOR [2] (setting [3]), the Ki is 2540 nM. Also, the Ki on MOR [2] (Table 7, values of Table 5) worked out at 2540 nM.

For the compound `CN(C(=O)C1CCCN1Cc1ccccc1)[C@H](CN1CCCC1)c1ccccc1` (stereo partly shown), on MOR [1], the “MOR mean % inhibition” value is recorded as 66.5% and the MOR was 67. Moreover, the Ki at MOR [2] (setting [3]) was determined as 1930 nM.

`CN(C(=O)Cc1ccccc1)[C@@H](CN1CCCC1)c1ccccc1`: on MOR [1], the “MOR mean % inhibition” value is 4.2% and the MOR stood at 4.

For the compound `CN(C(=O)Cc1cccc2occc12)[C@H](CN1CCCC1)c1ccccc1`, the “MOR mean % inhibition” value on MOR [1] stood at 87.7%. On MOR [1], this compound yielded an MOR of 88. The Ki turned out to be 337 nM on MOR [2] (setting [3]) and 337 nM at MOR [2] (Table 7, values of Table 5).

On to `CN(C(=O)Cc1cccc2occc12)[C@@H](CN1CCCCC1)c1ccccc1`, for which, on MOR [1], the “MOR mean % inhibition” value turned out to be 17.2% and the MOR is on record as 17.

For the compound `CN(C(=O)Cc1ccc(Cl)c(Cl)c1)[C@@H](CN1CCCCC1)c1ccccc1`, at MOR [1], the “MOR mean % inhibition” value turned out to be 44.6% and the MOR is reported as 45.

In the case of `CN(C(=O)Cc1ccc2occc2c1)[C@@H](CN1CCCCC1)c1ccccc1`, on MOR [1], the “MOR mean % inhibition” value is 29.8% and the MOR worked out at 30. Further, the “Nociceptive testing (analgesia / anti-analgesia)” value with Sprague-Dawley rats was “almost no analgesia but a typical anti-analgesic effect”. For the same compound, in the assay with Sprague-Dawley rats (rats (male)), the “onset of anti-analgesia after administration” value is “about 90 minutes”.

For the compound `CN(C(=O)C1CCCN1Cc1ccccc1)[C@@H](CN1CCCC1)c1ccccc1` (stereo partly shown), at MOR [1], the “MOR mean % inhibition” value stood at 31.9% and the MOR was determined as 32.

Turning to `CN(C(=O)Cc1ccccc1)[C@H](CN1CCCC1)c1ccccc1` [listing 2 of 2 here], the Ki at MOR [2] (setting [3]) was found to be 1760 nM; on MOR [2] (Table 7, values of Table 5) it was 1760 nM.

With `CN(C(=O)Cc1cccc2occc12)[C@H](CN1CCCCC1)c1ccccc1`, on MOR [1], the “MOR mean % inhibition” value is recorded as 55.6%. The same compound yielded an MOR at MOR [1] of 56. Further, the Ki at MOR [2] (setting [3]) was determined as 2190 nM; at MOR [2] (Table 7, values of Table 5), 2190 nM.

With `Cc1cccc(CC(=O)N(C)[C@H](CN2CCCC2)c2ccccc2)c1`, at MOR [1], the “MOR mean % inhibition” value is recorded as 85.3% and the MOR is 85. The Ki on MOR [2] (setting [3]) was found to be 601 nM. Further, the Ki on MOR [2] (Table 7, values of Table 5) worked out at 601 nM.

`CN(C(=O)Cc1cccc2occc12)[C@@H](CN1CCCC1)c1ccccc1`: on MOR [1], the “MOR mean % inhibition” value stood at 25.5% and the MOR worked out at 26.

Turning to `Cc1cccc(CC(=O)N(C)[C@H](CN2CCCCC2)c2ccccc2)c1`, the “MOR mean % inhibition” value on MOR [1] was 53.8%. At MOR [1], this compound returned an MOR of 54. The Ki at MOR [2] (setting [3]) worked out at 2450 nM; at MOR [2] (Table 7, values of Table 5) it was 2450 nM.
